# Reference: paper PMC6627609 (2019)
# Amino acid sequences for entries named in this document (tags omitted). A change or cut given only in a name is not applied to a line headed by its entry.
# UniProt Q8ZKQ6: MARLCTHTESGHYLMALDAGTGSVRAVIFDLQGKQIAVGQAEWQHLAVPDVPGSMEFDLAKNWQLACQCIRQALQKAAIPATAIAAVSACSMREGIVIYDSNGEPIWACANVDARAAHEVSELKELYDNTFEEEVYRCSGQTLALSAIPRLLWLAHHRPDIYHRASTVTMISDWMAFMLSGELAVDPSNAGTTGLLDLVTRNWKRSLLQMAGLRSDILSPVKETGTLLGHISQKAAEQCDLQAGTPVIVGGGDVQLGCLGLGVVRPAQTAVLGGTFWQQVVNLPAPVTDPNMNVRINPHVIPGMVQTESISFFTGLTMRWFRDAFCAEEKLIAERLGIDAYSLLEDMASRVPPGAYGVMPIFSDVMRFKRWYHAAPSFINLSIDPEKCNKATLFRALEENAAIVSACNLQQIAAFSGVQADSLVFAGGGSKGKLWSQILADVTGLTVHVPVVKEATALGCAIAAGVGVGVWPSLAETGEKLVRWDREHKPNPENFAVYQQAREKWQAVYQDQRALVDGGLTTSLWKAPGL
# Biological target: LsrK (Salmonella typhimurium, UniProt Q8ZKQ6)
# Settings: 50 µM
compound,measurement,value
CC1=C(/C=C/C(C)=C/C=C/C(C)=C/C(=O)O)C(C)(C)CCC1 [TRETINON],Inhibition (%),2
